Assay results published in patent US10618918B2, “Substituted boronic acids as antimicrobials” (priority 2015, dated 2020).

Chains of the proteins cited; added tags and fusions are not shown. Lines headed by an entry give the natural chain unless they say otherwise; changes in a name come on top. Residues count along the entry.
UniProt P05364, 21-381: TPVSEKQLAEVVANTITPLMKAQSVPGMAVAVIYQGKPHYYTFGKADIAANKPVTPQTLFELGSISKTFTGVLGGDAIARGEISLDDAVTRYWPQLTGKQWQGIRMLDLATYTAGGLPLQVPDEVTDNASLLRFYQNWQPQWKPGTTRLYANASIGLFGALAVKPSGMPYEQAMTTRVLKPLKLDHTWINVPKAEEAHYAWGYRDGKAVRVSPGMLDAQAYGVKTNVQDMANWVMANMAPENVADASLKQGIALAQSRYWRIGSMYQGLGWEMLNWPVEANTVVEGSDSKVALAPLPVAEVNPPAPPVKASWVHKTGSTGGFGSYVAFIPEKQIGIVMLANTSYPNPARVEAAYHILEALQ
UniProt P24735: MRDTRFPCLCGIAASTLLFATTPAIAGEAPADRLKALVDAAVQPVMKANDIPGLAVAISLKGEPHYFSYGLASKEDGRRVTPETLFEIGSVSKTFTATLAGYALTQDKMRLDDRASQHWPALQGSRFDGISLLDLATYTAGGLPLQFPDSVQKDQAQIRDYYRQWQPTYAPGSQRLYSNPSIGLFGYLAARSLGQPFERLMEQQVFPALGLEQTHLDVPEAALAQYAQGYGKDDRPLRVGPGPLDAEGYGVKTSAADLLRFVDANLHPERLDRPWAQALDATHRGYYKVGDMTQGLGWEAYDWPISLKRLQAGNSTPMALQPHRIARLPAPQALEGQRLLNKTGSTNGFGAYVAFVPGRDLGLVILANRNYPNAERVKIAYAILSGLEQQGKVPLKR

Columns and labels:
[1] = biological target: purified class A, C and D enzymes (β-lactamases) (Enterobacter cloacae, UniProt P05364); assay type: biochemical; settings: read-out: Ki (P99, NCF)
[2] = biological target: T1, purified class A, C and D enzymes (β-lactamases) (Pseudomonas aeruginosa, UniProt P24735); assay type: biochemical; settings: read-out: Ki (Pa-AmpC, NCF)
T1 construct: rows headed: Ki (Pa-AmpC, NCF), uM; other: purified Pa-AmpC; nitrocefin (NCF) as reporter substrate

Disodium; 4,4-dihydroxy-8-(1H-triazol-4-ylmethoxy)-5-oxa-4-boranuidabicyclo[4.4.0]deca-1(6),7,9-triene-7-carboxylate [Compound 24]
Ki [1]: < 100 nM | Ki [2]: < 100 nM
